Test results reported in ChEMBL document CHEMBL1140423, “(6,7-Dimethoxy-2,4-dihydroindeno[1,2-c]pyrazol-3-yl)phenylamines: platelet-derived growth factor receptor tyrosine kinase inhibitors with broad antiproliferative activity against tumor cells” (J Med Chem, 2005).

Assays:
Assay type in all cases: functional, cell-based
PC-3 = test: Antiproliferative activity against human prostate tumor cell line PC3
HUVEC = test: Antiproliferative activity against LSGS stimulated HUVEC; conditions: Homo sapiens
LoVo = test: Antiproliferative activity against human colon tumor cell line LoVo
T47D = test: Antiproliferative activity against human breast tumor cell line T47D
A-375 = test: Antiproliferative activity against human melanoma tumor cell line A375
ASPC1 = test: Antiproliferative activity against human pancreatic tumor cell line AsPC1
NCI-H460 = test: Antiproliferative activity against human lung tumor cell line H460

| IC50 (PC-3) [nM] | IC50 (LoVo) [nM] | IC50 (T47D) [nM] | IC50 (A-375) [nM] | IC50 (ASPC1) [nM] | IC50 (NCI-H460) [nM] | Compound | IC50 (HUVEC) [nM] |
| --- | --- | --- | --- | --- | --- | --- | --- |
| 10 |  |  |  |  |  | COc1cccc(Nc2[nH]nc3c2Cc2cc(OC)c(OC)cc2-3)c1 |  |
| 48 | 12 | 30 | 1580 | 427 |  | COc1cc2c(cc1OC)-c1n[nH]c(Nc3cccc(Cl)c3)c1C2 | 1730 |
| 12 |  |  |  |  |  | COc1cc2c(cc1OC)-c1n[nH]c(Nc3cccc(C)c3)c1C2 |  |
|  | 10500 |  |  |  | 9950 | COc1ccc2c(c1)-c1n[nH]c(Nc3ccccc3)c1C2 | 15 |
